The source of these data is ChEMBL document CHEMBL5034025 (Eur J Med Chem, 2021).

By UniProt entry, the sequences of proteins in these tests, tags left out. Residues count along the entry.
UniProt P33261, whole entry: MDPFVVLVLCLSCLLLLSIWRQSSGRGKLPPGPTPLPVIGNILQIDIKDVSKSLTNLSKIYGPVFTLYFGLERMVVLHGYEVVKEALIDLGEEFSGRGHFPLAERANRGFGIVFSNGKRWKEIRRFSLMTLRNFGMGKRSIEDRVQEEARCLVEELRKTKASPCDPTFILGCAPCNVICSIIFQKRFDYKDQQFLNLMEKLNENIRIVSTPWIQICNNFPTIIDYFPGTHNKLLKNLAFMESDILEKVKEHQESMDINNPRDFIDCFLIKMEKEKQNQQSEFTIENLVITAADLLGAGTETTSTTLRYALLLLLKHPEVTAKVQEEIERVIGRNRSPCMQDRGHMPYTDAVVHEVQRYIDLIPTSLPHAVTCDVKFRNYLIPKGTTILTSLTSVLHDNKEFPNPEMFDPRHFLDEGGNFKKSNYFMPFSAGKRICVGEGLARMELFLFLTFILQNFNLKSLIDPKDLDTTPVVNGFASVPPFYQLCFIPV
UniProt Q9CYK2, 36-362 limits assumed: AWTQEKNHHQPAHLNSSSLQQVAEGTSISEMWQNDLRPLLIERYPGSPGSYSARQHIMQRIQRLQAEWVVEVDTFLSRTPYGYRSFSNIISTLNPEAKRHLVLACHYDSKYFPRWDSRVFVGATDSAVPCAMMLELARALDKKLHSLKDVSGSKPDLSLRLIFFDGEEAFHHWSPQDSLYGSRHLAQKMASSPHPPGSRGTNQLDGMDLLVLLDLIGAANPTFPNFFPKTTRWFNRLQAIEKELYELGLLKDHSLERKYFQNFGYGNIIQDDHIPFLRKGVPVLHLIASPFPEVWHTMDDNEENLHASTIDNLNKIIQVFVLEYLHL
UniProt P10635, whole entry: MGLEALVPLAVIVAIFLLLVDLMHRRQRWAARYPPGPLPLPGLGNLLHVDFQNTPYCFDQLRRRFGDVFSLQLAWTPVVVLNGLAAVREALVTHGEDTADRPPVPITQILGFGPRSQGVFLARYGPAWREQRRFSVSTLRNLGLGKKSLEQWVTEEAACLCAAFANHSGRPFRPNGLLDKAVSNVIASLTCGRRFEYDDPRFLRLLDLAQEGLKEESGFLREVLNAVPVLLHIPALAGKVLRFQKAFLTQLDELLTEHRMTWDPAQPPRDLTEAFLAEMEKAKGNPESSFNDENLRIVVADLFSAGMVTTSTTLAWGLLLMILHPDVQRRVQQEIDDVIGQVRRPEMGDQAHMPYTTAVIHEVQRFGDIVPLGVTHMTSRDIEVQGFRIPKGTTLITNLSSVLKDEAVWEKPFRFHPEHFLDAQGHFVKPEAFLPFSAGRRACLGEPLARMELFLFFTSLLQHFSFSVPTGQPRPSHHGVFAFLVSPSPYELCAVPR
UniProt Q12809, whole entry: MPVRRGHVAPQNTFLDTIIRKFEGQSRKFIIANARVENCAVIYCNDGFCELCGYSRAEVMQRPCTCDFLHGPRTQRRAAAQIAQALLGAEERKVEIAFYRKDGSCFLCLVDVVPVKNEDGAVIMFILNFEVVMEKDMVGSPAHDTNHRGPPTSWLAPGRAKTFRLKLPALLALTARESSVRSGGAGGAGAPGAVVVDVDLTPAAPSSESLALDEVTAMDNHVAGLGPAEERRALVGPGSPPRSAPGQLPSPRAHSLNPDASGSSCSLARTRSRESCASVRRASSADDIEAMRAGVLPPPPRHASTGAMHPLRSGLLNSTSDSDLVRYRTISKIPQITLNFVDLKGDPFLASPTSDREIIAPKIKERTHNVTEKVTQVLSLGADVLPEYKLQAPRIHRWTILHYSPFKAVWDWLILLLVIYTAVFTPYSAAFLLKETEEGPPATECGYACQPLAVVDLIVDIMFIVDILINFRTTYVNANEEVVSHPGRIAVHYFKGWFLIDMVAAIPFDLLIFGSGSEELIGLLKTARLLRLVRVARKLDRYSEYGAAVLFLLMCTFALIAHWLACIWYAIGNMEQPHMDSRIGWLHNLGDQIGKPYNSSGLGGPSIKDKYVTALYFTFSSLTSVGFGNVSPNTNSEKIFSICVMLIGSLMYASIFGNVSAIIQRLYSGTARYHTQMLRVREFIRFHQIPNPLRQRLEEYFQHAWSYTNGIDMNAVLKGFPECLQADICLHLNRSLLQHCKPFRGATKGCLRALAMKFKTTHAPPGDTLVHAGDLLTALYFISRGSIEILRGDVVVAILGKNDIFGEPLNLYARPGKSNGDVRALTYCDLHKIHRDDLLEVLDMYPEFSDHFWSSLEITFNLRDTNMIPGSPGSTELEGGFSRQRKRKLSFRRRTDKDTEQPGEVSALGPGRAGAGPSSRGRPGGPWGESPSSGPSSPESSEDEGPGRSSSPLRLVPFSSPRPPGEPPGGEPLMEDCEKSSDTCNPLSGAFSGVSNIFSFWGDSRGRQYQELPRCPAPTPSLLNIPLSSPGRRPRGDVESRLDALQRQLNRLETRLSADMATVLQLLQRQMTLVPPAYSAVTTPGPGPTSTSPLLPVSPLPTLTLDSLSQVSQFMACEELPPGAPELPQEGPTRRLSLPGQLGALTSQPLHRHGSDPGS
UniProt P08684, 2-503 limits assumed: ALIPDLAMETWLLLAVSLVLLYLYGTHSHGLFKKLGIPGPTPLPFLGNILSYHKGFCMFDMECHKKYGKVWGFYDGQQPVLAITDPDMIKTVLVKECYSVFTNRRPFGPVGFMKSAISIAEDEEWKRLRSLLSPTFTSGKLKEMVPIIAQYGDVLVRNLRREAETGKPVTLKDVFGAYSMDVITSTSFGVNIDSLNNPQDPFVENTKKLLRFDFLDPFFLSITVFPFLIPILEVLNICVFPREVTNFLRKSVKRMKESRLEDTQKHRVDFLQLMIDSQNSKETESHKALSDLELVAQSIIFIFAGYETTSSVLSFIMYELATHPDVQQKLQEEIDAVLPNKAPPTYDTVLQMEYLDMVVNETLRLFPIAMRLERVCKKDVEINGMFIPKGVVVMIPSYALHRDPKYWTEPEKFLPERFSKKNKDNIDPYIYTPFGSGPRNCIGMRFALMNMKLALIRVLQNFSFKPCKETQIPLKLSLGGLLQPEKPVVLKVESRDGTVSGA
UniProt P11712, whole entry: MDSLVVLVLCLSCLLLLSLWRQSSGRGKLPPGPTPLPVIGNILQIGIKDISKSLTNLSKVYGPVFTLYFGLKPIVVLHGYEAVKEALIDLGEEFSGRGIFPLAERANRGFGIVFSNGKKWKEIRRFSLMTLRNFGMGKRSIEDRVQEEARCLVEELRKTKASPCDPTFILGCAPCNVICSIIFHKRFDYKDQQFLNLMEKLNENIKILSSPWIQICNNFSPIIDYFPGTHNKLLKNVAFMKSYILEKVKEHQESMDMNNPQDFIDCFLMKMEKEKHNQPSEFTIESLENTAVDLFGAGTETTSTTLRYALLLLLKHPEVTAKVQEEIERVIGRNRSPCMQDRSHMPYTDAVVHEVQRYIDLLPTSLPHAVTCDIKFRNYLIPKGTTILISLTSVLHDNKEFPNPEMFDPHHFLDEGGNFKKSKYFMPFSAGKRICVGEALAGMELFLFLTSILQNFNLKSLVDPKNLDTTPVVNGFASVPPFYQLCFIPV
UniProt P05177, 2-516 limits assumed: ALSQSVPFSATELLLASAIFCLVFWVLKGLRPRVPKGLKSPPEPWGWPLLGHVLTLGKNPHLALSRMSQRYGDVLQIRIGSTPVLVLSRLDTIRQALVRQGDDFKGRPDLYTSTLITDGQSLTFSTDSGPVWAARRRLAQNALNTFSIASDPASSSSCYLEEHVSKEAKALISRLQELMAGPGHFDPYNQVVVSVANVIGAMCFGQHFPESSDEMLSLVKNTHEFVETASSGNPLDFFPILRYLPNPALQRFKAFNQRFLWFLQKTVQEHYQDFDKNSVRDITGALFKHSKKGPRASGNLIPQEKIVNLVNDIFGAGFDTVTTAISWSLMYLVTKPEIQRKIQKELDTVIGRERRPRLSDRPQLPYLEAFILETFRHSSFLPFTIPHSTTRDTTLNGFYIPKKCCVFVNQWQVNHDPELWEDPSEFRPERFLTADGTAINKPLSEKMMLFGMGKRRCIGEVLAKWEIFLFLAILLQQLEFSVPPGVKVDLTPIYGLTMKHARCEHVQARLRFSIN

The term IC50 denotes the concentration needed to halve the response being measured. Low readings indicate higher potency, high ones lower potency.

Some compounds may have been tested in ways that are not shown here.

In one data set the target is Cytochrome P450 2C19 (Homo sapiens, UniProt P33261). As to the kind of experiment: Inhibition of CYP2C19 (unknown origin) at 10 uM.
The target of data set [1] is Glutaminyl-peptide cyclotransferase (Mus musculus, UniProt Q9CYK2). Description: Inhibition of mouse QPCT measured after 15 mins by fluorimetry.
For another data set, the target named is Cytochrome P450 2D6 (Homo sapiens, UniProt P10635). Description: Inhibition of CYP2D6 (unknown origin) at 10 uM.
The test system of another data set is HT-22. Description: Cytotoxicity against mouse HT22 cells assessed as cell viability at 10 uM incubated for 18 hrs by MTT assay. The following applies: ht-22, 18 h. A general note: Formazan colour is commonly taken as a measure of viable cells.
In data set [2] the target is Voltage-gated inwardly rectifying potassium channel KCNH2 (Homo sapiens, UniProt Q12809). As to the kind of experiment: Inhibition of human ERG at 10 uM by fluorescence polarization assay.
Data set [3] is described as follows: Metabolic stability in human liver microsomes assessed as parent compound remaining measured after 30 mins. The following applies: 0.5 h. (In general: Liver microsomes are vesicles of endoplasmic reticulum, rich in cytochrome P450 enzymes.)
The nature of data set [4]: Metabolic stability in mouse liver microsomes assessed as parent compound remaining measured after 30 mins. To be noted: 0.5 h.
The next data set has as its target Cytochrome P450 3A4 (Homo sapiens, UniProt P08684). Description: Inhibition of CYP3A4 (unknown origin) at 10 uM.
The next data set deals with Cytochrome P450 2C9 (Homo sapiens, UniProt P11712). As to the kind of experiment: Inhibition of CYP2C9 (unknown origin) at 10 uM.
In a further data set the target is Cytochrome P450 1A2 (Homo sapiens, UniProt P05177). Description: Inhibition of CYP1A2 (unknown origin) at 10 uM.
Data set [5] concerns Mus musculus. As to the kind of experiment: Antialzheimer activity in transgenic 5XFAD mouse model assessed as amyloid beta42 levels in hippocampus at 10 mM administered every day for 4 weeks via brain infusion by ELISA. (An ELISA detects its analyte on a solid surface through an enzyme-linked reagent.)
The subject of data set [6] is Mus musculus. Description: Antialzheimer activity in transgenic 5XFAD mouse model assessed as amyloid betaN3pE-42 levels in hippocampus at 10 mM administered every day for 4 weeks via brain infusion by ELISA.
For data set [7], the system named is Mus musculus. Description: Antialzheimer activity in transgenic 5XFAD mouse model assessed as amyloid beta40 levels in hippocampus at 10 mM administered every day for 4 weeks via brain infusion by ELISA.
For data set [8], the system named is Mus musculus. As to the kind of experiment: Antialzheimer activity in transgenic 5XFAD mouse model assessed as amyloid betaN3pE-40 levels in hippocampus at 10 mM administered every day for 4 weeks via brain infusion by ELISA.

With `COc1cc(N(C(=O)NCCCn2cncc2C)C2CCN(C)CC2)ccc1OCCc1ccnc(N)c1`, the inhibition (INH) against Cytochrome P450 2C19 was 6%; against Cytochrome P450 2D6, 95%; in data set [2], 9.2%; on Cytochrome P450 3A4, 50%; against Cytochrome P450 2C9 it was 17%; against Cytochrome P450 1A2 it was 0%. In [1], this compound yielded an IC50 of 7.6 nM. For the same compound, the Activity in the data set with HT-22 stood at 100%. Moreover, the Stability in data set [3] amounted to 73.2%; in data set [4], 60.9%.
With `COc1cc(N(C(=O)NCc2ccc3[nH]cnc3c2)C2CCN(C)CC2)ccc1OCCCCc1ccnc(N)c1`, the inhibition (INH) worked out at 24% on Cytochrome P450 2C19; 61% on Cytochrome P450 2D6; 3.5% in data set [2]; 48% at Cytochrome P450 3A4; 11% at Cytochrome P450 2C9; 0% at Cytochrome P450 1A2. The compound further came in with an IC50 in data set [1] of 60.7 nM. Besides, the Activity in the data set with Mus musculus [5] was determined as 30.5%; in the data set with HT-22, 100%; in the data set on Mus musculus [6] it was 21.3%; with Mus musculus [7], 37.5%; in the data set with Mus musculus [8] it was 32.6%. Besides, the Stability in [3] is 97.7%; in [4], 92.1%.
